Reference: patent publication EP1900813A1, “NOVEL PHYSIOLOGICAL SUBSTANCE NESFATIN, SUBSTANCE RELEVANT THERETO, AND USE OF THE SUBSTANCES” (Teijin Pharma Limited, priority 2005, dated 2008)

System: nesfatin
Assay: Binding specificity of anti-nesfatin-1 antibody: Western blotting of rat brain extracts after pre-reaction with peptides
Conditions: 5 µg peptide per 1 µg anti-nesfatin-1 antibody, room temperature, 1 hour
Procedure: Western blotting analysis was carried out by the method described in Working Example 3 with the primary antibody being changed from anti-NAP polyclonal antibody to anti-nesfatin-1 antibody. Before reacting anti-nesfatin-1 antibody to the membrane in Western blotting as an experiment for investigating the binding specificity of anti-nesfatin-1 antibody, 5 µg of each peptide of NAP1-Ab (Working Example 10), and leptin (Rat leptin: R & D Systems, 598-LP-01M), αMSH (Melanocyte Stimulating Hormone; Peptide Institute, Inc., 4057-v), CART (Rat Cocaine- and Amphetamine-Regulated Transcript 55-102; Peptide Institute, Inc., 4351-s), NPY (Human, Rat Neuropeptide Y; Peptide Institute, Inc., 4158-v), MCH (Human Melanin-Concentrating Hormone; Peptide Institute, Inc., 4369-v) and Orexin-A (Human, Rat, Mouse, Bovine Orexin-A; Peptide Institute, Inc., 4346-s) per 1 µg of anti-nesfatin-1 antibody was added, and reacted at room temperature for 1 hour, and then Western blotting was carried out in the method described above to examine whether or not the bands disappear.

## CART: Rat Cocaine- and Amphetamine-Regulated Transcript 55-102; Peptide Institute, Inc., 4351-s (IPIYEKKYGQVPMCDAGEQCAVRKGARIGKLCDCPRGTSCNSFLLKCL)
  47.5 kd band of nesfatin in Western blotting after pre-reaction of anti-nesfatin-1 antibody with the peptide: did not disappear
